The pIC50 is −log10 of the IC50, conventionally taken in molar units.

The chains behind the UniProt entries cited, without tags or fusion partners.
UniProt P34913, whole entry: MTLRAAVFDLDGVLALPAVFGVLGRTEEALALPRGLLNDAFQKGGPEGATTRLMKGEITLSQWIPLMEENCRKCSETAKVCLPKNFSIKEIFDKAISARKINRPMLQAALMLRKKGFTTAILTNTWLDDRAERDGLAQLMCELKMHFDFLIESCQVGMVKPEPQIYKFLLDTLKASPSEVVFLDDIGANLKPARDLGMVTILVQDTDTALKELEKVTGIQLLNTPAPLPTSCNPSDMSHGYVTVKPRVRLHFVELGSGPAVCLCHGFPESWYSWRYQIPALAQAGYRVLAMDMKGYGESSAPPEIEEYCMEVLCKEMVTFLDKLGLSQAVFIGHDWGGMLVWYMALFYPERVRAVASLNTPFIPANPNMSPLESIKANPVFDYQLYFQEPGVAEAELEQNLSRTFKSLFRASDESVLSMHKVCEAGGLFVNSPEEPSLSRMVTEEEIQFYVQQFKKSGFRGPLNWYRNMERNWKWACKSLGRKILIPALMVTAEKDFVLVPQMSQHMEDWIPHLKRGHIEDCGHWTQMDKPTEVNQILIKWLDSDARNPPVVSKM

Each structure is given as a SMILES string. pIC50: −log10 of the molar value.

The target of this assay is recombinant sEH (Homo sapiens, UniProt P34913). Nature of the assay: biochemical screening assay for inhibition of soluble epoxide hydrolase (fluorometric, Phome substrate). The following applies: read-out: sEH IC50. As for the experimental part: The ability of the compounds of the formula I to inhibit soluble epoxide hydrolase can be determined as follows:
Compounds were tested in a biochemical screening assay using recombinant sEH purified from Sf9 insect cells and an artificial substrate, (3-phenyl-oxiranyl)-acetic acid cyano-(6-methoxy-naphtalen-2-yl)-methyl ester, Phome. The biochemical assay was performed in analogy to a fluorometric method described in the literature (P. D. Jones et al., Anal. Biochem. 2005, 343, 66-75). The assay principle bases on the sEH-catalyzed hydrolysis of an artificial α-cyano-ester substrate. 0-deacetylation liberates a cyanohydrin intermediate that rapidly decomposes to the highly fluorescent 6-methoxy-2-naphtaldehyde. To discriminate sample autofluorescence, the assay was carried out as a kinetic measurement with two time points. The first measurement is performed immediately before addition of the substrate and the second measurement is done after completion of the assay. The assay format is either in 96- or in 384-well format. Details of the assay using a 96-well plate format are described below. […]
Fluorescence can be measured with any suitable detector for instance a TECAN Safire or Tecan Ultra at […]. % inhibition of recombinant sEH activity is used for calculation of corresponding IC50 values as illustrated and described in the examples. […]

Take `N#C[C@H]1CO[C@H]2[C@@H]1OC[C@@H]2NC(=O)Nc1ccc2c(c1)OCCO2`: the pIC50 was 7.07.

The values above are taken from patent US9540391B2, “Isomannide derivatives as inhibitors of soluble epoxide hydrolase” (SANOFI, priority 2013, dated 2017).
